From PubChem BioAssay AID1046 (PCMD, 2008) come the findings set out here.

SMILES strings stand for the structures. Only a part is listed here, and it is no random draw. Some structures show a salt or complex split into parts, the way the source records it. The source made the active and inactive calls.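 The calls were made as follows: active = inhibition at or above 40%; inactive = inhibition below 40%.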

This assay addresses Prothrombin (Homo sapiens) (UniProt P00734). The assay is described as follows: human alpha-thrombin inhibitors, primary screen, counter-screen for coagulation protease inhibitor project, biochemical, 1536-well, fluorogenic AMC substrate (AID 1046).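 Also: 0% = enzyme with no compound and 100% = wells without enzyme.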 Conditions: Boc-VPR-AMC fluorogenic substrate cleavage, at 5 µM, hits give high values.
As a reminder, the inhibition is the drop in the measured response relative to a control, in per cent. Turning to `O=C(OCCCN1CCCC1)C(O)(c1ccccc1)C1CCCCC1` (stereo unspecified), the inhibition is inactive: 0.85%.
Regarding `CP(=O)(Oc1ccccc1)N1CCOC1=O` (stereo unspecified), the inhibition is inactive: 19.7%.
The figure for `CCc1ccc(OP(C)(=O)Nc2cccnc2)cc1` (stereo unspecified) is inactive: -11.3%; for `CCN(CC)CC(O)COC(=O)C(O)(c1ccccc1)C1CCCCC1` (stereo unspecified) it is inactive: 0.61%.
The figure for `COc1ccc(OP(C)(=O)Nc2ccc(Br)cc2)cc1` (stereo unspecified) is inactive: -7.18%; for `CN(C)C(=O)c1c([N+](=O)[O-])cc([N+](=O)[O-])cc1[N+](=O)[O-]` it is inactive: -41.9%; for `COc1ccccc1OP(C)(=O)Nc1ccccc1Br` (stereo unspecified) it is inactive: -11.3%.
The figure for `CC(C)(C)c1ccc(OP(C)(=O)O)cc1` is inactive: -2.43%; for `CP(=O)(Nc1ccc(Cl)cc1)Oc1ccc(F)cc1` (stereo unspecified) it is inactive: -0.35%.
Consider `CCOC(=O)c1ccc(NP(C)(=O)Oc2ccc(Cl)cc2)cc1` (stereo unspecified), for which the inhibition was inactive: -2.19%.
Under `CP(=O)(OC12CC3CC(CC(C3)C1)C2)OC12CC3CC(CC(C3)C1)C2` stands inactive: -4.45%.
Turning to `COc1ccccc1OP(C)(=O)Nc1ccc(C)c(C)c1` (stereo unspecified), the inhibition is inactive: -1.46%.
Turning to `COc1ccc(OP(C)(=O)Nc2ccccc2Br)cc1` (stereo unspecified), the inhibition was inactive: -0.78%.
Take `Cc1cc(C)cc(OP(C)(=O)Nc2cccc(C(F)(F)F)c2)c1` (stereo unspecified): the inhibition is inactive: -8.77%.
The figure for `CP(=O)(Nc1ccc(Cl)cc1Cl)Oc1ccccc1` (stereo unspecified) is inactive: -1.38%; for `CP(=O)(OCCOc1ccccc1)OCCOc1ccccc1` it is inactive: -1.92%; for `Cc1nc2ccc3ccccc3c2o1.O=[N+]([O-])c1cc([N+](=O)[O-])c(O)c([N+](=O)[O-])c1` it is inactive: -0.24%.
As for `COc1ccc(OP(C)(=O)Nc2ccccn2)cc1` (stereo unspecified), the inhibition is inactive: -5.07%.
As for `CN(C)CCOC(=O)C(O)(c1ccccc1)C1CCCC1` (stereo unspecified), the inhibition was inactive: -5.17%.
The figure for `COc1ccccc1OP(C)(=O)Nc1ccc(Br)cc1` (stereo unspecified) is inactive: -5.73%; for `CP(=O)(Nc1ccccn1)Oc1ccccc1` (stereo unspecified) it is inactive: 0.5%.
Under `COc1ccccc1OP(C)(=O)Nc1ccc(C)cc1C` (stereo unspecified) stands inactive: -5.26%; under `CCc1ccc(OP(C)(=O)O)cc1`, inactive: -4.02%; under `Cc1c(NP(C)(=O)Oc2ccc(C(C)C)cc2)c(=O)n(-c2ccccc2)n1C` (stereo unspecified), inactive: 2.43%.
`O=[N+]([O-])c1cc([N+](=O)[O-])c(Nc2ccccn2)c([N+](=O)[O-])c1`: the inhibition is inactive: -5.61%.
As to `CP(=O)(Nc1ccccc1F)Oc1ccccc1` (stereo unspecified), the inhibition is inactive: -5.96%.
With `CC(C)c1ccc(OP(C)(=O)Nc2ccc(SC(F)(F)F)cc2)cc1` (stereo unspecified), the inhibition is inactive: 0.26%.
As to `COc1ccc2c(c1O)-c1c(O)c(OC)cc3c1[C@H](C2)[N+](C)(C)CC3.O=[N+]([O-])c1cc([N+](=O)[O-])c([O-])c([N+](=O)[O-])c1[O-]`, the inhibition is inactive: 2.4%.
The figure for `O=C(OC1CN2CCC1CC2)c1ccc([N+](=O)[O-])cc1` (stereo unspecified) is inactive: -3.28%; for `O=C(OCCN1CCN(CCOCc2ccccc2)CC1)C(O)(c1ccccc1)c1ccccc1` it is inactive: -2.49%; for `CCOC(=O)c1ccc(NP(C)(=O)Oc2ccc(F)cc2)cc1` (stereo unspecified) it is inactive: -7.75%.
Regarding `COc1ccc(OP(C)(=O)Nc2ccc(SC(F)(F)F)cc2)cc1` (stereo unspecified), the inhibition was inactive: 1.49%.
`CP(=O)(Nc1ccccc1)Oc1ccc(F)cc1` (stereo unspecified): the inhibition is inactive: 3.78%.
As for `CCCCCOc1ccc(NP(C)(=O)Oc2ccc(Cl)cc2Cl)cc1` (stereo unspecified), the inhibition was inactive: 1.95%.
The figure for `CCN(CC)CCCOC(=O)C(O)(c1ccccc1)C1CCCCC1` (stereo unspecified) is inactive: -6.43%; for `CN(C)CCOC(=O)C(O)(c1ccccc1)C1CCCCC1` (stereo unspecified) it is inactive: -0.51%; for `COc1ccc(NP(C)(=O)Oc2ccccc2OC)cc1` (stereo unspecified) it is inactive: -3.31%.
The figure for `COc1ccc(OP(C)(=O)Nc2cccc(Br)c2)cc1` (stereo unspecified) is inactive: -1.89%; for `Cc1cc(-c2cccc3ccccc23)c(C)cn1.O=[N+]([O-])c1cc([N+](=O)[O-])c(O)c([N+](=O)[O-])c1` it is inactive: -4.09%.
For the compound `O=[N+]([O-])c1cc([N+](=O)[O-])c(NCC2CCS(=O)(=O)C2)c([N+](=O)[O-])c1` (stereo unspecified), the inhibition is inactive: -4.35%.
Under `CCOP(C)(=S)SCC(=O)NC(C)(CC)C(=O)O` (stereo unspecified) stands inactive: -13%; under `CP(=O)(Nc1ccc(SC(F)(F)F)cc1)Oc1ccc(F)cc1` (stereo unspecified), inactive: -4.27%; under `Cc1ccccc1NP(C)(=O)Nc1ccccc1C`, inactive: -5.92%.
The figure for `CP(=O)(Nc1ccc2c(c1)OCCO2)Oc1ccccc1` (stereo unspecified) is inactive: -2.78%; for `O=[N+]([O-])c1cc([N+](=O)[O-])c(-n2nnc3ccccc32)c([N+](=O)[O-])c1` it is inactive: -2.46%.
For the compound `Cc1nc2ccc3ccccc3c2s1.O=[N+]([O-])c1cc([N+](=O)[O-])c(O)c([N+](=O)[O-])c1`, the inhibition is inactive: 4.76%.
`O=[N+]([O-])c1cc([N+](=O)[O-])c(Nc2nnnn2CCO)c([N+](=O)[O-])c1`: the inhibition was inactive: -2.14%.
For the compound `CCOC(=O)C(CC)C1=NC(C)(C)Cc2ccccc21.O=[N+]([O-])c1cc([N+](=O)[O-])c(O)c([N+](=O)[O-])c1` (stereo unspecified), the inhibition was inactive: -5.51%.
The figure for `CP(=O)(Nc1ccc(SC(F)(F)F)cc1)Oc1ccccc1` (stereo unspecified) is inactive: -5.2%.
On to `CN1CCCCC1COC(=O)C1(O)c2ccccc2CCc2ccccc21` (stereo unspecified), for which the inhibition is inactive: -2.25%.
Take `COc1ccccc1OP(C)(=O)Nc1c(C)cccc1C` (stereo unspecified): the inhibition was inactive: -0.05%.
With `O=C(O)c1cccc(Nc2c([N+](=O)[O-])cc([N+](=O)[O-])cc2[N+](=O)[O-])c1`, the inhibition is inactive: -3.45%.
The figure for `CC1=NCCc2c1[nH]c1ccccc21.O=[N+]([O-])c1cc([N+](=O)[O-])c(O)c([N+](=O)[O-])c1` is inactive: -0.24%; for `CCOC(=O)c1ccc(NP(C)(=O)Oc2cc(C)cc(C)c2)cc1` (stereo unspecified) it is inactive: -4.87%.
Under `Cc1cc(C)cc(OP(C)(=O)Nc2ccc(C)cc2C)c1` (stereo unspecified) stands inactive: -1.41%.
The figure for `COc1ccccc1OP(C)(=O)Nc1cccc(Br)c1` (stereo unspecified) is inactive: 3.26%; for `Cc1ccc(C)c(NP(C)(=O)Oc2ccccc2)c1` (stereo unspecified) it is inactive: -0.71%; for `Cc1cc(C)cc(OP(C)(=O)Nc2ccccn2)c1` (stereo unspecified) it is inactive: -7.27%.
As to `CP(=O)(Nc1cccc(Br)c1)Oc1ccccc1` (stereo unspecified), the inhibition is inactive: -0.14%.
The figure for `CCN(CC)CCCOC(=O)C(O)(c1ccccc1)c1ccccc1` is inactive: 0.12%; for `O=[N+]([O-])c1ccc2c(c1)C=Nc1ccccc1O2` it is inactive: -4.6%.
Turning to `CC(C)(C)c1ccc(OP(C)(=O)Nc2ccc(SC(F)(F)F)cc2)cc1` (stereo unspecified), the inhibition is inactive: -5.75%.
With `Cc1cccc(C)c1OP(C)(N)=O` (stereo unspecified), the inhibition was inactive: -6.61%.
Regarding `Cc1cc(C)cc(OP(C)(N)=O)c1` (stereo unspecified), the inhibition was inactive: 1.22%.
Under `COc1ccccc1OP(C)(=O)Nc1cc(Cl)ccc1C` (stereo unspecified) stands inactive: -17.2%; under `COc1ccc(OP(C)(=O)Nc2cccc(F)c2)cc1` (stereo unspecified), inactive: 0.29%; under `COc1ccccc1OP(C)(=O)Nc1ccc(C)cc1` (stereo unspecified), inactive: 13.6%.
Regarding `Cc1ccc(NP(C)(=O)Oc2ccccc2)c(C)c1` (stereo unspecified), the inhibition was inactive: -8.13%.
The figure for `CCOC(=O)c1ccc(NP(C)(=O)Oc2ccccc2)cc1` (stereo unspecified) is inactive: -3.86%.
For the compound `CP(=O)(Nc1ccccc1Br)Oc1ccccc1` (stereo unspecified), the inhibition was inactive: 0.99%.
Under `COc1ccccc1OP(C)(=O)Nc1ccccc1` (stereo unspecified) stands inactive: -3.05%; under `CP(=S)(Nn1cnnc1)Oc1ccccc1` (stereo unspecified), inactive: 1.17%.
In the case of `CP(=O)(NC(=O)Nc1ccccc1)Oc1ccccc1` (stereo unspecified), the inhibition was inactive: 4.21%.
Under `CCc1ccc(OP(C)(=O)N2CCN(c3ccc([N+](=O)[O-])cc3)CC2)cc1` (stereo unspecified) stands inactive: -6.17%; under `Cc1cc(C)cc(OP(C)(=O)Nc2ccc(SC(F)(F)F)cc2)c1` (stereo unspecified), inactive: 13.5%.
As to `CP(=O)(Nc1ccc(SC(F)(F)F)cc1)Oc1ccc(Cl)cc1` (stereo unspecified), the inhibition is inactive: 2.79%.
In the case of `Cc1cccc(C)c1OP(C)(=O)Nc1ccc(SC(F)(F)F)cc1` (stereo unspecified), the inhibition is inactive: -11.6%.
Under `CP(=O)(Oc1ccccc1)OC(c1ccccc1)C(F)(F)F` (stereo unspecified) stands inactive: -1.23%.
`CP(=O)(Nc1ccccn1)Oc1ccc(Cl)cc1` (stereo unspecified): the inhibition is inactive: -5.34%.
Under `CCOC(=O)c1ccc(NP(C)(=O)Oc2ccc(OC)cc2)cc1` (stereo unspecified) stands inactive: -2.03%.
Under `CCOP(C)(=S)SCC(=O)NC(C)C(=O)O` (stereo unspecified) stands inactive: 2.49%.
